## AlphaSeq binding of Ab-91 heavy chain variants to a spike HR2 peptide

Target peptide (SARS-CoV-2 spike, HR2 region): PDVDLGDISGINAS

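The starting antibody came from a phage panning campaign against this peptide. Variants in AAYL51 differ from the parent at up to three CDR positions; double and triple changes were sampled at random. AlphaSeq pools MATa yeast showing the antibodies with MATalpha yeast showing the peptide. After mating in shaken culture at 30 °C for 16 h, diploids were selected and their barcode pairs sequenced. The ratio of observed to expected reads was calibrated, replicate by replicate, on BCL2-family standards whose Kd was known from biolayer interferometry. Mating was done three times.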

Ab-91 is the parent antibody, in scFv form: VL, then a (GGGGS)3 linker, then VH. The light chain is unchanged in all variants.
VL: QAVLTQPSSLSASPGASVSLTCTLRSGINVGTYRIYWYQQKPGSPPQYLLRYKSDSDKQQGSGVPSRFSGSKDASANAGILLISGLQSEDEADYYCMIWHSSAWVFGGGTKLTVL
VH: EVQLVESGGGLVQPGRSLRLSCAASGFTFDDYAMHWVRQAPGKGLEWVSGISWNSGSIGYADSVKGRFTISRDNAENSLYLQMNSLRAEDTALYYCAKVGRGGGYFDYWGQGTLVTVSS

Changes read parent residue, position, new residue, counted from the first residue of the VH shown.
The Kd shown is the geometric mean over detected replicates; a lower Kd is a better binder.
A pair that was not seen in any replicate is written "no signal"; this usually means weak binding, but a binder can also be missed.

changes	Kd	replicates with signal	control signals
D31Y/V99M/G102M	no signal	0/3	0/9
G56K/D62E/G104N	190 µM	2/3	5/9
A33E/G50I/G104A	2.2 µM	1/3	0/9
S57F/R101E/F106E	16 µM	1/3	2/9
D30H/D31Y/V99T	23 µM	3/3	0/9
F27M/A33V/V99T	no signal	0/3	0/9
G56H/D107N	21 µM	2/3	1/9
G26S/D30V/G104H	no signal	0/3	3/9
F29Y/S52T/G59F	no signal	0/3	1/9
G50V/Y60A/D107P	28 µM	1/3	4/9
S52C/V64C/R101E	no signal	0/3	1/9
T28N/A33N/G104T	47 µM	2/3	3/9
F27H/I58Q/D107M	190 µM	2/3	5/9
I51V/I58A/A61T	1.2 µM	1/3	0/9
G26F/V64P/G104A	no signal	0/3	0/9
Y32T/I58Q/V64Y	95 µM	2/3	7/9
G50S/I51N/Y105H	9.4 µM	1/3	4/9
G59R/S63M/G102I	no signal	0/3	2/9
S55I/V99R/G102N	85 µM	2/3	6/9
F27R/T28G/G104H	3.5 µM	3/3	6/9
T28K/M34W	420 nM	3/3	3/9
R101M/G103R/F106Q	68 µM	1/3	1/9

The remaining entries, values ahead:

Kd	replicates with signal	control signals	changes
no signal	0/3	1/9	T28H/G59H/V99M
120 µM	2/3	3/9	F27V/M34W/R101K
84 nM	2/3	0/9	S52N/G100L
190 µM	1/3	2/9	F29N/G104T
no signal	0/3	1/9	G26P/D30N/G56P
no signal	0/3	0/9	G26E/F27W/G100Y
no signal	0/3	0/9	D31Q/A33T/S55M
no signal	0/3	1/9	T28Q/H35K/Y105P
no signal	0/3	1/9	M34F/S57M/V64E
14 µM	1/3	0/9	D31A/A61I/R101N
50 µM	2/3	4/9	G59V/D62C/S63M
no signal	0/3	2/9	V64H/K65N/F106N
110 µM	2/3	3/9	D30V/A33D/G50D
1.5 µM	1/3	0/9	D31A/W53A/V64E
17 µM	1/3	4/9	F29N/I58G/D107G
no signal	0/3	1/9	A33K/I58V/G102T
no signal	0/3	2/9	I51G/W53N/G102A
350 nM	3/3	0/9	G26C/G56E
no signal	0/3	0/9	F29A/M34L/W53G
4.5 µM	1/3	1/9	M34R/W53L/Y60Q
no signal	0/3	0/9	N54D/A61E/Y108K
no signal	0/3	0/9	V64I/V99C/G104D
9.4 µM	3/3	1/9	F29A/S52R/F106Y

The opening 4 entries, copied out:

{"changes": "D31Y/V99M/G102M", "Kd": "no signal", "replicates with signal": "0/3", "control signals": "0/9"}
{"changes": "G56K/D62E/G104N", "Kd": "190 µM", "replicates with signal": "2/3", "control signals": "5/9"}
{"changes": "A33E/G50I/G104A", "Kd": "2.2 µM", "replicates with signal": "1/3", "control signals": "0/9"}
{"changes": "S57F/R101E/F106E", "Kd": "16 µM", "replicates with signal": "1/3", "control signals": "2/9"}

Background: pairings of library AAYL51 with three empty control strains gave a value in 21% of cases (median 34 µM, 5th percentile 1.8 µM). Values in that range, when seen in few replicates, are hard to tell from nonspecific mating. For each scFv, signals with the empty controls are counted beside the result.
In this assay the parent's reference entry averaged 72 nM; its copy inside this library read 7.5 nM.

From the AlphaSeq antibody data of Engelhart et al. 2022 (doi:10.1038/s41597-022-01779-4), copy in the FLAb collection.